Patent US4985595A, “Aminobenzamide derivatives” (Daiichi Pharmaceutical Co., Ltd., priority 1984, dated 1991)

Experiment: in vivo
Details: mouse, po, mice, orally administered, read-out: acute toxicity (LD50)

## CNC(=O)c1cccc(NCC(=O)NCCc2ccc(OC)c(OC)c2)c1 [Compound a]
  LD50: > 2000 mg/kg
